Test results published in US6608082B1, “Treatment of erectile dysfunction using isoquinoline compound melanocortin receptor ligands” (Lion Bioscience AG, priority 1998, dated 2003).
Read-outs that look alike come from different tables or passages of the source.

The chains behind the UniProt entries cited, without tags or fusion partners.
UniProt Q01726, whole entry: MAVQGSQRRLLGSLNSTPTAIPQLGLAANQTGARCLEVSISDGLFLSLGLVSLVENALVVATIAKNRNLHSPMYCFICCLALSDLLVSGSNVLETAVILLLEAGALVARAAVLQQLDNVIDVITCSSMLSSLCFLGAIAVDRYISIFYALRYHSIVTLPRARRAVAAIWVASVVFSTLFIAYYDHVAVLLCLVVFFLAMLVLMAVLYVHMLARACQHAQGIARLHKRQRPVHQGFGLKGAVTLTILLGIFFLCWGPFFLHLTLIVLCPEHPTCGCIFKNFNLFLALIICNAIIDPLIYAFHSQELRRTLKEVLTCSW
UniProt P32245, whole entry: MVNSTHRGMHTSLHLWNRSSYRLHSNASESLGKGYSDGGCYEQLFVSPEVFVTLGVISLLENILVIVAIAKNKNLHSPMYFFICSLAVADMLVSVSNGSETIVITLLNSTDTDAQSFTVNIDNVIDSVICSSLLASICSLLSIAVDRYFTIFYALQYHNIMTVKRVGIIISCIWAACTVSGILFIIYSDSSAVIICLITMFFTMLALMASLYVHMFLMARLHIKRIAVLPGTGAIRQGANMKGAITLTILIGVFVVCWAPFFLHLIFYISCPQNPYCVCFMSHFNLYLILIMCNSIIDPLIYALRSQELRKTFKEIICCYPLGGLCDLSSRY

Legend:
[1] = molecular target: MCR-1 (Homo sapiens, UniProt Q01726); assay: Melanocortin receptor binding assay, competition with 125I-HP 467, HEK 293 cells expressing hMCR-1; conditions: for IC50: read-out: MC-1 IC50
[2] = molecular target: MCR-4 (Homo sapiens, UniProt P32245); assay: Melanocortin receptor binding assay, competition with 125I-HP 467, HEK 293 cells expressing hMCR-4; conditions: for IC50: read-out: MC-4 IC50
[3] = TRG 2414 library, inhibition of binding of 125I-HP 467, HEK 293 cells expressing MCR-1
[4] = TRG 2414 library, inhibition of binding of 125I-HP 467, HEK 293 cells expressing MCR-4
[5] = TRG 2408 and TRG 2409 libraries, inhibition of 125I-HP 467 binding
[6] = competition with 125I-HP 467, HEK 293 cells expressing MCR-1
[7] = competition with 125I-HP 467, HEK 293 cells expressing MCR-4

Question: For CCCOc1ccc(C2C(C(=O)NCc3ccc(OC)cc3)c3ccccc3C(=O)N2CCCC[C@H](NC(=O)c2ccccc2)C(N)=O)cc1 (some centres unmarked), which “MC-1 IC50” value [1, 3] is on record?
Answer: no fit

Question: What about the “MC-4 IC50” value [2, 4] of the same compound?
Answer: no fit

Question: CN[C@@H](CN)CCCCN1Cc2ccccc2C(CNCc2ccccc2O)C1c1ccc(-c2ccccc2)cc1 (some centres unmarked) was tested. Which IC50 [1, 5] did it give?
Answer: 1.55 µM

Question: And the IC50 [2, 5]?
Answer: 15.2 µM

Question: How did the “MC-1 IC50” value [1, 3] turn out when COc1ccc(CCNC(=O)C2c3ccccc3C(=O)N(CCCC[C@H](N)C(N)=O)C2c2ccc(Cl)cc2Cl)cc1 (some centres unmarked) was run?
Answer: no fit

Question: What about the “MC-4 IC50” value [2, 4] of the same compound?
Answer: no fit

Question: With COc1ccc(CCNC(=O)C2c3ccccc3C(=O)N(CCCC[C@H](NC(=O)Cc3ccccc3)C(N)=O)C2c2ccc(Cl)cc2Cl)cc1 (some centres unmarked) as the compound, how does the “MC-1 IC50” value [1, 3] read?
Answer: no fit

Question: And the “MC-4 IC50” value [2, 4]?
Answer: no fit

Question: With NCCN[C@H](CN)CCCN1Cc2ccccc2C(CNCc2ccccc2O)C1c1ccc(-c2ccccc2)cc1 (some centres unmarked) as the compound, how does the IC50 [1, 5] read?
Answer: 1.33 µM

Question: And the IC50 [2, 5]?
Answer: 17.8 µM

Question: For NC[C@H](CCCN1Cc2ccccc2C(CNCc2ccccc2O)C1c1ccc(Cl)cc1Cl)NCCc1ccccc1 (some centres unmarked), which IC50 [1, 5] is on record?
Answer: 4.66 µM

Question: What about the IC50 [2, 5] of the same compound?
Answer: 13.3 µM

Question: Which IC50 [1, 6] does the source give for CN[C@H](CN)CCCCN1Cc2ccccc2C(CNCc2ccccc2O)C1c1ccc(NCc2ccc(Cl)cc2)cc1 (some centres unmarked) here?
Answer: 5.04 µM

Question: And the IC50 [2, 7]?
Answer: 22.9 µM

Question: Which results are given for NC[C@@H](N)CCN1Cc2ccccc2C(CNCc2ccccc2O)C1c1ccc(Cl)cc1Cl (some centres unmarked)?
Answer: IC50 [1, 5]: 6.33 µM; IC50 [2, 5]: 8.72 µM

Question: How did the “MC-1 IC50” value [1, 3] turn out when NC(=O)[C@H](CCCCN1C(=O)c2ccccc2C(C(=O)NCCc2cccc(Cl)c2)C1c1ccc(Cl)cc1Cl)NC(=O)c1ccccc1 (some centres unmarked) was run?
Answer: no fit

Question: What about the “MC-4 IC50” value [2, 4] of the same compound?
Answer: no fit

Question: How did the IC50 [1, 5] turn out when CCNc1ccc(C2C(CNCc3ccccc3O)c3ccccc3CN2CCCC[C@H](CN)NCCc2ccccc2)cc1 (some centres unmarked) was run?
Answer: 1.57 µM

Question: What about the IC50 [2, 5] of the same compound?
Answer: 9.71 µM

Question: NC[C@@H](CCCCN1Cc2ccccc2C(CNCc2ccccc2O)C1c1ccc(-c2ccccc2)cc1)NCCc1ccccc1 (some centres unmarked) was tested. Which IC50 [1, 5] did it give?
Answer: 8.81 µM

Question: What about the IC50 [2, 5] of the same compound?
Answer: 18.1 µM

Question: For COc1ccccc1CCNC(=O)C1c2ccccc2C(=O)N(CCCC[C@H](NC(=O)Cc2ccccc2)C(N)=O)C1c1ccc(Oc2ccccc2)cc1 (some centres unmarked), which “MC-1 IC50” value [1, 3] is on record?
Answer: no fit

Question: And the “MC-4 IC50” value [2, 4]?
Answer: no fit

Question: For CCNc1ccc(C2C(CNCc3ccccc3O)c3ccccc3CN2CCCC[C@H](CN)NCCNC)cc1 (some centres unmarked), which IC50 [1, 5] is on record?
Answer: 0.68 µM

Question: And the IC50 [2, 5]?
Answer: 21.8 µM

Question: CCOc1ccccc1CNCC1c2ccccc2CN(CCCC[C@H](N)CN)C1c1ccccc1Br (some centres unmarked) was tested. Which IC50 [1, 3] did it give?
Answer: 2.33 µM

Question: What about the IC50 [2, 4] of the same compound?
Answer: 1.5 µM

Question: What does the source list for CN[C@H](CN)CCN1Cc2ccccc2C(CNCc2ccccc2O)C1c1ccc(-c2ccccc2)cc1 (some centres unmarked)?
Answer: IC50 [1, 5]: 6.72 µM; IC50 [2, 5]: 10.8 µM

Question: With COc1ccc(CNC(=O)C2c3ccccc3C(=O)N(CCCC[C@H](NC(=O)C(C)c3ccc(CC(C)C)cc3)C(N)=O)C2c2ccc(Oc3ccccc3)cc2)cc1 (some centres unmarked) as the compound, how does the “MC-1 IC50” value [1, 3] read?
Answer: no fit

Question: What about the “MC-4 IC50” value [2, 4] of the same compound?
Answer: no fit

Question: Which results are given for COc1ccc(CCNC(=O)C2c3ccccc3C(=O)N(CCCC[C@H](NC(=O)c3ccccc3)C(N)=O)C2c2ccc(Oc3ccccc3)cc2)cc1 (some centres unmarked)?
Answer: MC-1 IC50 [1, 3]: no fit; MC-4 IC50 [2, 4]: no fit

Question: How did the IC50 [1, 5] turn out when NC[C@H](CCN1Cc2ccccc2C(CNCc2ccccc2O)C1c1ccc(-c2ccccc2)cc1)NCCc1ccccc1 (some centres unmarked) was run?
Answer: 14.7 µM

Question: What about the IC50 [2, 5] of the same compound?
Answer: 16.4 µM

Question: What does the source list for NC(=O)[C@H](CCCCN1C(=O)c2ccccc2C(C(=O)NCCc2cccc(Cl)c2)C1c1ccc(Oc2ccccc2)cc1)NC(=O)Cc1ccccc1 (some centres unmarked)?
Answer: MC-1 IC50 [1, 3]: no fit; MC-4 IC50 [2, 4]: no fit

Question: How did the “MC-1 IC50” value [1, 3] turn out when CCCOc1ccc(C2C(C(=O)NCCc3cccc(Cl)c3)c3ccccc3C(=O)N2CCCC[C@H](NC(=O)c2ccccc2)C(N)=O)cc1 (some centres unmarked) was run?
Answer: no fit

Question: What about the “MC-4 IC50” value [2, 4] of the same compound?
Answer: no fit

Question: CN[C@H](CN)CCCCN1Cc2ccccc2C(CNCc2ccccc2O)C1c1ccc(NCCc2ccc(Cl)c(Cl)c2)cc1 (some centres unmarked) was tested. Which IC50 [1, 6] did it give?
Answer: 9.82 µM

Question: What about the IC50 [2, 7] of the same compound?
Answer: 49.8 µM

Question: With COc1ccc(CNC(=O)C2c3ccccc3C(=O)N(CCCC[C@H](NC(=O)c3ccccc3)C(N)=O)C2c2ccc(Cl)cc2Cl)cc1 (some centres unmarked) as the compound, how does the “MC-1 IC50” value [1, 3] read?
Answer: no fit

Question: What about the “MC-4 IC50” value [2, 4] of the same compound?
Answer: no fit

Question: Which IC50 [1, 5] does the source give for NC[C@@H](N)CCCN1Cc2ccccc2C(CNCc2ccccc2O)C1c1ccc(Cl)cc1Cl (some centres unmarked) here?
Answer: 2.21 µM

Question: And the IC50 [2, 5]?
Answer: 9.44 µM

Question: Which IC50 [1, 5] does the source give for CN[C@@H](CN)CCCCN1Cc2ccccc2C(CNCc2ccccc2O)C1c1ccc(Cl)cc1Cl (some centres unmarked) here?
Answer: 2.77 µM

Question: What about the IC50 [2, 5] of the same compound?
Answer: 4.89 µM

Question: How did the IC50 [1, 5] turn out when CN[C@H](CN)CCN1Cc2ccccc2C(CNCc2ccccc2O)C1c1ccc(Cl)cc1Cl (some centres unmarked) was run?
Answer: 5.09 µM

Question: What about the IC50 [2, 5] of the same compound?
Answer: 7.85 µM
